Data taken from ChEMBL document CHEMBL1136572, “Piperazine-based CCR5 antagonists as HIV-1 inhibitors. III: synthesis, antiviral and pharmacokinetic profiles of symmetrical heteroaryl carboxamides” (Bioorg Med Chem Lett, 2003).

The chains behind the UniProt entries cited, without tags or fusion partners.
UniProt P51681, whole entry: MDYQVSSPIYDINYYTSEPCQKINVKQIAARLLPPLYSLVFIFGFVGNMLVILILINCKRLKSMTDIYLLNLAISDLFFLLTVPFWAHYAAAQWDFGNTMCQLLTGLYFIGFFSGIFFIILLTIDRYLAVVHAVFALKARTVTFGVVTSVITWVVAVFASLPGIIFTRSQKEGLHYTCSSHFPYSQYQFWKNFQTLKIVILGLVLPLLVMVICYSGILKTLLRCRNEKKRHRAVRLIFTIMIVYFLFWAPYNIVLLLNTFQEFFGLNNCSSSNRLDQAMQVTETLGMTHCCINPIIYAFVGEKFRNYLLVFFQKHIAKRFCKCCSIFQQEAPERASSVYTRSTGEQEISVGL

Molecular target: C-C chemokine receptor type 5 (Homo sapiens, UniProt P51681)
Test: Ability of compound to inhibit [125I]-labeled RANTES binding to the CCR5 receptor expressed in membrane preparations from CHO cells
Type: cell-based, Cricetulus griseus

Work on `Cc1ncnc(C)c1C(=O)N1CCC(C)(N2CCN([C@@H](C)c3ccc(C(F)(F)F)cc3)[C@@H](C)C2)CC1` yielded a Ki of 3 nM.
